This experiment addresses T1, human ERK-2 (Mitogen Activated Kinase 1) (Homo sapiens, UniProt P28482).
T1 construct: N-terminal 6-His fusion protein in E. coli and corresponding to aa 8-360; 6-His (N); made in house; host or cells: E. coli
The experiment is described as follows: ERK-2 Enzymatic Assay. It counts as biochemical. The conditions noted are these: TABLE I; 5nM ERK-2 enzyme, 25µM ATP, S/T17 peptide substrate; single assay or mean of multiple assays. The protocol:
Compounds were tested in an enzymatic assay using human ERK-2 (Mitogen Activated Kinase 1), recombinantly expressed as an N-terminal 6-His fusion protein in E. coli and corresponding to aa 8-360. The substrate used was the fluorescent Omnia peptide S/T17 (Invitrogen of Carlsbad, CA; Cat. KNZ1171C). Test compounds were diluted in DMSO in 3-fold serial dilutions at 100x final concentrations. […] The assay was run at ambient temperature in a white 384-well polypropylene plate (Nunc, Inc of Naperville, IL; Cat. 267462) collecting data every 50 seconds for approximately 30 minutes on an Envision plate reader (PerkinElmer, Inc. of Waltham, MA); Excitation 340 nm/Emission 495 nm. The data collected from each well was fit to a straight line and the resulting rates were used to calculate percent of control. Percent of control was plotted against compound concentration and IC50 values were determined using a four-parameter fit. Representative data is in TABLE I and TABLE II. The reported IC50 may be from a single assay or the mean of multiple assays.

Sequences of proteins named here, by UniProt entry; tags and fusion partners are left off. Residues count along the entry.
UniProt P28482, 8-360: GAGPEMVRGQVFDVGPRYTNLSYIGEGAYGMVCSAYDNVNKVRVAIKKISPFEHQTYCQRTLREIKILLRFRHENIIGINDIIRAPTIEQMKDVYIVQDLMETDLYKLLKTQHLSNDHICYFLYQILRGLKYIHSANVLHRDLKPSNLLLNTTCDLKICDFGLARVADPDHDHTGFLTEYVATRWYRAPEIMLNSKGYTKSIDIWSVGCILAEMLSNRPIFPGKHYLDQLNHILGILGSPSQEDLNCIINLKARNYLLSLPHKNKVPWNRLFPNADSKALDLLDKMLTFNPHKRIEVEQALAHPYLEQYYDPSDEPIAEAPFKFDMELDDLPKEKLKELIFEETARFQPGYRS

The results in this text go back to EP2739618B1, “QUINAZOLINE COMPOUNDS AS SERINE/THREONINE KINASE INHIBITORS” (Array Biopharma, Inc., priority 2011, dated 2013).

SMILES strings stand for the structures.

As for `C[C@@H](CO)Nc1ncc2ccc(C(=O)N[C@@H](c3ccc(Cl)c(F)c3)c3cnn(C)c3)cc2n1` (stereo in doubt) [Compound I-15, 2-((S)-2-hydroxy-1-methyl-ethylamino)-quinazoline-7-carboxylic acid [(S)-(4-chloro-3-fluoro-phenyl)-(1-methyl-1H-pyrazol-4-yl)-methyl]-amide], the IC50 (in general, the concentration at which inhibition is half-maximal) stood at 1.2 nM.

Consider `Cn1cc(C(NC(=O)c2ccc3cnc(NC4CCOCC4)nc3c2)c2ccc(Cl)c(F)c2)cn1` (stereo not drawn) [Compound I-2, 2-(Tetrahydro-pyran-4-ylamino)-quinazoline-7-carboxylic acid [(4-chloro-3-fluoro-phenyl)-(1-methyl-1H-pyrazol-4-yl)-methyl]-amide], for which the IC50 worked out at 0.8 nM.

In the case of `Cn1cc([C@@H](NC(=O)c2ccc3cnc(NC4CCOCC4)nc3c2)c2ccc(Cl)c(F)c2)cn1` [Compound I-12, 2-(tetrahydropyran-4-ylamino)-quinazoline-7-carboxylic acid [(S)-(4-chloro-3-fluoro-phenyl)-(1-methyl-1H-pyrazol-4-yl)-methyl]-amide], half-maximal inhibition (IC50) required 1.4 nM.
